{"sequences": {"note": "The chains behind the UniProt entries cited, without tags or fusion partners.", "UniProt P28564, whole entry": "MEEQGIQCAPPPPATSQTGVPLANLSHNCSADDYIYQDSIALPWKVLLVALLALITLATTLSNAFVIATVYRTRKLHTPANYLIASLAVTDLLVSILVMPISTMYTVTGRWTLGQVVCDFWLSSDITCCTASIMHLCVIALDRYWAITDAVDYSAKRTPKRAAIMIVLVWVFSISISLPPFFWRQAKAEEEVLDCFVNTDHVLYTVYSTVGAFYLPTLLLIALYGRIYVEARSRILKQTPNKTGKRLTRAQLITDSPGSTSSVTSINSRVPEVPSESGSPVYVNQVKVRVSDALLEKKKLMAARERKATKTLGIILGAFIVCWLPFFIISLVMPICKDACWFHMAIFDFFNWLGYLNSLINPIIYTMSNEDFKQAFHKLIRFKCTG", "UniProt P28334, whole entry": "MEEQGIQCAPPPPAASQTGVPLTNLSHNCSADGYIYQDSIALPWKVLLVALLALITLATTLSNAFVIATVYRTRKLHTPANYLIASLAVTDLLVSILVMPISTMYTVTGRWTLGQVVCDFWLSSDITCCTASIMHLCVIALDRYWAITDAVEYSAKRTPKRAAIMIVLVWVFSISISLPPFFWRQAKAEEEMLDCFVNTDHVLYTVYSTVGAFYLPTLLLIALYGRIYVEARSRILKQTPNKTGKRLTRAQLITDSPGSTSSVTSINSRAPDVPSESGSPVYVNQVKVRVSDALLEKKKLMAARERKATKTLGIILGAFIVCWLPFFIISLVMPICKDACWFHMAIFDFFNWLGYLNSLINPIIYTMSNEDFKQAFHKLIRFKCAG", "UniProt P61169, whole entry": "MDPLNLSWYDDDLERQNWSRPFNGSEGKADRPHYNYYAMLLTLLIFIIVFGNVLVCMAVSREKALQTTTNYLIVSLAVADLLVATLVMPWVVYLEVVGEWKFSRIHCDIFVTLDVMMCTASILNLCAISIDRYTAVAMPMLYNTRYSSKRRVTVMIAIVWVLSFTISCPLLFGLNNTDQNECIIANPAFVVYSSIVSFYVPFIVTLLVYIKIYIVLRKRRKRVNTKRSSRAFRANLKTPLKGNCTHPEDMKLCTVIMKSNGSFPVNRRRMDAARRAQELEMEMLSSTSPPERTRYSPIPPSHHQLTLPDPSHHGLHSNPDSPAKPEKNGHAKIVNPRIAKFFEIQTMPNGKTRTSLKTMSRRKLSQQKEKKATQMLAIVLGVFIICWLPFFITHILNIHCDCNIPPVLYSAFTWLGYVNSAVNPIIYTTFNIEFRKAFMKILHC", "UniProt P14842, whole entry": "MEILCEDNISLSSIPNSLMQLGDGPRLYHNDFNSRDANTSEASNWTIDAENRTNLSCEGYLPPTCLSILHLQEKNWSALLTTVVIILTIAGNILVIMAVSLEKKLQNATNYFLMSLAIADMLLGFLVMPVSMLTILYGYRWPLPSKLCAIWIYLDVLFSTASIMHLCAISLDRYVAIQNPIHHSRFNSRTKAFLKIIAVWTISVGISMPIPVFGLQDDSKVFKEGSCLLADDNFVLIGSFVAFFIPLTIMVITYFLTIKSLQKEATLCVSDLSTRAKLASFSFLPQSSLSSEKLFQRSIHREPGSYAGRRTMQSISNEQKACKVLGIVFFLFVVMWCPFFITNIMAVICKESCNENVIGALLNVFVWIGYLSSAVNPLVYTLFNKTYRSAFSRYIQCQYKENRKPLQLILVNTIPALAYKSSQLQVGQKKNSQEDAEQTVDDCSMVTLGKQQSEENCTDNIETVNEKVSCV"}, "source": "patent US6713443B1", "about": "“Compounds which modify serotoninergic transmission, diagnostic and therapeutic applications” (Institut Pasteur, priority 1993, dated 2004)", "key": {"[1]": {"target": "T1, 5-HT1B receptor (Rattus norvegicus, UniProt P28564)", "test": "Adenylyl cyclase activity, rat substantia nigra homogenates", "format": "biochemical", "set-up": "from tissue; host or cells: rat substantia nigra homogenates", "source_text": "This activity was dependent on the concentration, with a bell-shaped dose-response curve."}, "[2]": {"system": "5-HT1B/1D receptors", "test": "Inhibitory function of the 5-HT1B/1D receptors on the evoked release of acetylcholine", "format": "biochemical", "conditions": "preliminary tests"}, "[3]": {"target": "5-HT1D receptors", "test": "[3H]5-HT binding to 5-HT1D receptors, human brain"}, "[4]": {"system": "opiate receptors", "test": "[3H]naloxone binding, rat brain membranes", "conditions": "1 nM peptide; [3H]naloxone (2 nM)"}, "[5]": {"system": "5-HT1B/D receptors", "test": "Relative activity at 1 nM, [125I]cyanopindolol binding", "conditions": "1 nM peptide or amino acid, 0.3 nM [125I]cyanopindolol", "description": "(§1) The binding experiments were performed as described above. […] Each value corresponds to the mean ± the standard deviation of three independent tests performed in quintuplicate."}, "[6]": {"target": "T2, mouse 5-HT1B receptor (Mus musculus, UniProt P28334)", "T2 construct": "expressed in transfected cells; host or cells: NIH 3T3 cells", "test": "[125I]cyanopindolol binding, membranes of NIH 3T3 cells transfected with the 5-HT1B receptor gene", "conditions": "NIH 3T3 cells transfected with mouse 5-HT1B; read-out: maximum effect, inhibition of the specific binding of [125I]cyanopindolol", "description": "(§2) The binding of [^125I]cyanopindolol was measured as described in HOYER D. et al., Eur. J. Pharmacol. 118, 1-12 (1985).\nFIG. 1B represents the results obtained with membranes of NIH 3T3 cells transfected with the 5-HT1B receptor gene (50 μg of protein), incubated for 60 minutes at 37° C. in the presence of 0.3 nM [^125I]cyanopindolol. Binding was measured as for FIG. 1A.\nThe activity of the peptide was also evaluated on the binding to the 5-HT1B receptors in NIH 3T3 cells transfected with the mouse 5-HT1B receptor gene."}, "[7]": {"system": "5-HT1B/D receptors", "test": "Relative activity at 1 nM, [3H]5-HT binding", "conditions": "1 nM peptide or amino acid, 30 nM [3H]5-HT", "description": "as §1"}, "[8]": {"target": "T3, dopaminergic D2 receptor (Rattus norvegicus, UniProt P61169)", "T3 construct": "from tissue; host or cells: rat brain membranes", "test": "D2 radioligand binding, rat brain membranes", "conditions": "1 nM peptide; [3H]epiperone (2 nM) + 10 μM 5-HT"}, "[9]": {"system": "muscarinic receptors", "format": "binding, rat", "conditions": "1 nM peptide; [3H]quinuclidinyl benzilate (3 nM)"}, "[10]": {"system": "α1 adrenergic receptor", "test": "[3H]prazosin binding, rat brain membranes", "conditions": "1 nM peptide; [3H]prazosin (2 nM)"}, "[11]": {"system": "5-HT1EFC", "test": "[3H]5-HT + 5-CT binding, rat brain membranes", "conditions": "1 nM peptide; [3H]5-HT (30 nM) + 20 nM 5-CT"}, "[12]": {"system": "5-HT1 NON A", "test": "[3H]5-HT binding to 5-HT1 non A sites (with 8-OH-DPAT), rat brain membranes", "description": "The synthetic peptide LSAL was tested for its capacity to “mimic” the effects of the purified fraction obtained from brain extracts.\n(§3) Rat brain cerebral membranes (200 μg) were incubated for 30 minutes at 25° C. with various specific radioligands (see table) in the presence or in the absence of 1 nM peptide.\n(§4) The various binding conditions used for the serotoninergic receptors are those described above (PALACIOS J. M. et al., Methods in Neurosciences 12, 238-262 (1993)). For the other bindings, the incubation medium consisted of 50 mM Tris-HCl pH 7.4 containing 120 mM NaCl and 50 mM KCl ([^3H]spiroperidol, [^3H]quinuclidinyl benzilate, [^3H]naloxone, or 4 mM CaCl2 and 4 mM MgCl2 ([^3H]flunitrazepam), or 120 mM NaCl, 5 mM KCl, 2.5 mM CaCl2 and 1 mM MgSO4 ([^3H]prazosin), or 90 mM NaCl ([^3H]dihydroalprenolol).\nEach point corresponds to a mean plus or minus the standard deviation of five independent determinations."}, "[13]": {"system": "recapture of choline, GABA, histamine, dopamine and noradrenaline", "test": "Recapture of other neurotransmitters or their precursors", "format": "biochemical"}, "[14]": {"system": "C57/BL/6 mice", "test": "Open field test", "format": "in vivo", "description": "The activity of LSAL was determined in the open field test on c57/black-6 mice. Male C57/BL/6 mice (20-25 g) were used. The open field consisted of a white plastic box (35×35×20 cm) divided into 25 equal squares. LSAL dissolved in 5 ml of 0.9% saline solution in a volume of 5 μl was injected via the icv route into the mice, which were placed in a corner of the box. After two minutes, the number of squares crossed, the U-turns made and the immobilization time were measured. The results are expressed as the mean plus or minus the standard deviation. Difference with the control: *p<0.05, **p<0.005 (student's test)."}, "[15]": {"target": "5-HT1D receptors", "test": "[3H]5-HT binding to 5-HT1D receptors, guinea pig", "conditions": "guinea pigs"}, "[16]": {"system": "benzodiazepine receptors", "test": "[3H]flunitrazepam binding, rat brain membranes", "conditions": "1 nM peptide; [3H]flunitrazepam (3 nM)"}, "[17]": {"target": "T1, 5-HT1B receptor", "test": "[125I]cyanopindolol binding to 5-HT1B receptors, rat brain membranes", "set-up": "from tissue; host or cells: rat brain cortical membranes", "description": "as §2\nFIG. 1A represents the results obtained with rat brain cortical membranes (50 μg of protein), incubated for 60 minutes at 37° C. in a total volume of 100 μl in the presence of 0.3 nM [^125I]cyanopindolol.\nThe incubation was carried out in a 5 mM Tris-HCl buffer, pH 7.5, containing 154 mM NaCl, 1 μM pargyline, 30 μM isoproterenol and various concentrations of the peptide (10^−13 to 10^−8 M). Each point corresponds to a mean plus or minus the standard deviation of five independent determinations.\nFIG. 1C represents the results obtained from rat brain cortical membranes (50 μg of protein) incubated for 60 minutes at 37° C. in a total volume of 100 μl, in the presence of increasing concentrations of [^125I]cyanopindolol (0.06 to 0.35 nM) with (◯) or without (●) the peptide at 1 nM. Each point corresponds to the mean plus or minus the standard deviation of three independent determinations.\nas §3, §4"}, "[18]": {"target": "T4, 5-HT2A (Rattus norvegicus, UniProt P14842)", "T4 construct": "from tissue; host or cells: rat brain membranes", "test": "[3H]ketanserin binding, rat brain membranes", "conditions": "1 nM peptide; [3H]ketanserin (5 nM)"}}, "note": "pIC50: −log10 of the molar value. Marks after values point to notes of the source that are not given here."}
{"compound": "CC(C)C[C@H](NC(=O)[C@H](C)NC(=O)[C@H](CO)NC(=O)[C@@H](N)CC(C)C)C(=O)O", "note": "[LSAL, Leu-Ser-Ala-Leu]", "values": [{"measurement": "activity on adenylyl cyclase compared with NIH 3T3 cells", "setting": "[1]", "value": "practically similar"}, {"measurement": "effect on the action of a 5-HT1B agonist", "setting": "[2]; at a higher concentration", "value": "potentiated the effect"}, {"measurement": "effect on the modulatory activity of the 5-HT1B/1D receptors", "setting": "[2]; at a very low concentration", "value": "antagonized the modulatory activity"}, {"measurement": "pIC50", "setting": "[3]", "value": 11.00}, {"measurement": "INHIBITORY EFFECT AS % OF THE CONTROL", "setting": "[4]", "value": "10 ± 10 % of the control"}, {"measurement": "RELATIVE POTENCY, Receptors 5-HT1B/D ([125I]-cyanopindolol)", "setting": "[5]", "value": "100 ± 10 percentage of the LSAL effect"}, {"measurement": "Emax", "setting": "[6]", "value": 70, "unit": "%"}, {"measurement": "RELATIVE POTENCY, Receptors 5-HT1B/D ([3H]5-HT)", "setting": "[7]", "value": "100 ± 5 percentage of the LSAL effect"}, {"measurement": "INHIBITORY EFFECT AS % OF THE CONTROL", "setting": "[8]", "value": "2 ± 3 % of the control"}, {"measurement": "INHIBITORY EFFECT AS % OF THE CONTROL", "setting": "[9]", "value": "0 ± 2 % of the control"}, {"measurement": "INHIBITORY EFFECT AS % OF THE CONTROL", "setting": "[10]", "value": "5 ± 3 % of the control"}, {"measurement": "INHIBITORY EFFECT AS % OF THE CONTROL", "setting": "[11]", "value": "0 ± 10 % of the control"}, {"measurement": "INHIBITORY EFFECT AS % OF THE CONTROL", "setting": "[12]; 1 nM peptide, [3H]5-HT (30 nM) + 0.1 μM 8-OH-DPAT", "value": "75 ± 3 % of the control"}, {"measurement": "IC50, binding to 5-HT1nonA", "setting": "[12]; compared with the IC50 on 5-HT1 receptors", "value": "identical IC50"}, {"measurement": "maximum inhibition of binding to 5-HT1nonA", "setting": "[12]; mainly 5-HT1B/1D sites", "value": 75, "unit": "%"}, {"measurement": "effect on the recapture of other neurotransmitters (or their precursors)", "setting": "[13]", "value": "Neither did it show any effect"}, {"measurement": "exploratory activity compared with the control animals", "setting": "[14]; 50 μg ICV per animal", "value": "significantly decreased"}, {"measurement": "Immobilization time", "setting": "[14]; LSAL 50 μg icv, C57/BL/6 mice", "value": "47 ± 8** sec."}, {"measurement": "Number of rightings", "setting": "[14]; LSAL 50 μg icv, C57/BL/6 mice", "value": "15 ± 3*"}, {"measurement": "Number of squares crossed", "setting": "[14]; LSAL 50 μg icv, C57/BL/6 mice", "value": "88 ± 9*"}, {"measurement": "pIC50", "setting": "[15]", "value": 11.00}, {"measurement": "INHIBITORY EFFECT AS % OF THE CONTROL", "setting": "[16]", "value": "2 ± 2 % of the control"}, {"measurement": "pIC50", "setting": "[17]", "value": 11.00}, {"measurement": "INHIBITORY EFFECT AS % OF THE CONTROL", "setting": "[17]; 1 nM peptide, [125I]cyanopindolol (0.3 nM) + 30 μM isoproterenol + 0.1 nM 8-OH DPAT", "value": "70 ± 2 % of the control"}, {"measurement": "type of interaction (saturation curves in the presence of the peptide)", "setting": "[17]; peptide at 1 nM, FIGS. 1C, 1D", "value": "noncompetitive interaction"}, {"measurement": "Emax", "setting": "[17]; rat cerebral tissue homogenates, FIG. 1A, read-out: maximum effect, % inhibition", "value": 60, "unit": "%"}, {"measurement": "INHIBITORY EFFECT AS % OF THE CONTROL", "setting": "[18]", "value": "10 ± 5 % of the control"}]}
